# Experimental properties from OPERA 2.9

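The OPERA project collected these measurements from public sources as training and test data for property models. A listed value is a point estimate from one report or more. Conditions of the individual experiments are not part of the data. The measured form (salt, isomer or mixture) is not always the one drawn. Some upstream entries may be estimates or bounds without being marked so.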

Melting points are in °C.
The boiling point refers to atmospheric pressure (760 mmHg), by the definition of the set.
logP is the log10 of the octanol-water partition coefficient; higher is more lipophilic.
Solubility in water is on a log10 molar scale (set defined at 25 °C).
Vapor pressure is log10 of mmHg; the set covers 15 to 30 °C, mostly 20 to 25 °C.
fu is the fraction unbound in human plasma, from 0 to 1.
Intrinsic clearance (human, µL/min per 10^6 hepatocytes): higher is faster turnover, and 0 stands for none detected.
Cells with "–" have no entry in this list.

- CCC(=O)OCC(=O)OC(C)C1CCCC(C)(C)C1 (stereo not given): logP 4.46; log S -4.367 (log10 mol/L); log VP -3.401 (log10 mmHg)
- CCC(CC)CC1(C(=O)O)CCCCC1 [1-(2-Ethyl-butyl)-cyclohexanecarboxylic acid]: melting point 21 °C; boiling point 306 °C; logP 4.35; log S -4.282 (log10 mol/L); log VP -3.514 (log10 mmHg)
- CC12CCCC(C)(CC1)C2=NO [1,5-Dimethylbicyclo[3.2.1]octan-8-one oxime]: melting point 132.3 °C; logP 2.94; log S -3.074 (log10 mol/L); log VP -3.034 (log10 mmHg)
- CC(Oc1ccc(Cl)cc1Cl)C(O)=NC(C)(C#N)C(C)C (stereo not given) [Fenoxanil]: log S -1.03 (log10 mol/L); log VP -9.801 (log10 mmHg)
- CCCc1ccc(-c2ccc(B(O)O)c(F)c2)cc1 [(3-Fluoro-4'-propyl[1,1'-biphenyl]-4-yl)boronic acid]: logP 4.9; log S -6.048 (log10 mol/L); log VP -6.042 (log10 mmHg)
- C=C(C)C(=O)O[C@H]1C[C@@H]2CC[C@@]1(C)C2(C)C [Isobornyl methacrylate]: logP 5.09; log S -4.611 (log10 mol/L); log VP -1.148 (log10 mmHg)
- CCCCCCCCCCCCCCCCCC(=O)OCC(CC)CCCC (stereo not given) [2-Ethylhexyl octadecanoate]: melting point 10 °C; log S -6.899 (log10 mol/L)
- CCOC1=C(O)C(=O)O[C@@H]1[C@@H](O)CO [3-O-Ethylascorbic acid]: logP -0.8; log VP -8.072 (log10 mmHg)
- COc1ccc(C(Cl)(c2ccccc2)c2ccc(OC)cc2)cc1 [1,1'-(Chlorophenylmethylene)bis(4-methoxybenzene)]: log S -5.053 (log10 mol/L); log VP -6.799 (log10 mmHg)
- Nc1ccc(N=Nc2ccccc2)c(N)c1 [2,4-Diaminoazobenzene]: boiling point 293 °C; logP 2.422; log VP -5.818 (log10 mmHg)
- C=C(C)C(=O)OCC(CCC)CCCCC (stereo not given) [2-Propylheptyl 2-methylprop-2-enoate]: melting point -117.5 °C; boiling point 258.2 °C; log S -5.674 (log10 mol/L); log VP -2.023 (log10 mmHg)
- CCCCCCCCCCCC(=O)N[C@@H](CCC(=O)NCCCC)C(=O)NCCCC: melting point 158.8 °C; logP 5.25; log S -7.544 (log10 mol/L); log VP -5.881 (log10 mmHg)
- COc1ccc(CC(C#N)C(=O)O)cc1OC (stereo not given) [2-Cyano-3-(3,4-dimethoxyphenyl)propanoic acid]: melting point 140.6 °C; logP -1.74; log S -1.801 (log10 mol/L); log VP -7.401 (log10 mmHg)
- O=C(Nc1ccc(Cc2ccc(NC(=O)Oc3ccccc3)cc2)cc1)Oc1ccccc1 [Diphenyl (methylenedi-4,1-phenylene)biscarbamate]: melting point 192.9 °C; log S -6.836 (log10 mol/L)
- OCC1COC(Cn2ccnc2)(c2ccc(Cl)cc2Cl)O1 (stereo not given): melting point 140.6 °C; log S -3.359 (log10 mol/L); log VP -8.592 (log10 mmHg)
- O=C(c1ccc(O)cc1)c1ccc(O)cc1O [2,4,4'-trihydroxybenzophenone]: fraction unbound 0.0196; Clint 21.1 µL/min/10^6 cells
- N#CC(=C1CCCCC1)c1ccccc1 [2-cyclohexylidene-2-phenylacetonitrile]: melting point -32.85 °C; logP 4; log S -4.42 (log10 mol/L); log VP -3.491 (log10 mmHg)
- O=C(OCC(=O)N1CCC1C(=O)O)c1ccccc1 (stereo not given) [1-[(Benzoyloxy)acetyl]azetidine-2-carboxylic acid]: melting point 150 °C; log S -2.141 (log10 mol/L)
- C=CC(=O)OCCCCCCOC(=O)C=C [1,6-Hexanediol diacrylate]: logP 2.81; log VP -3.347 (log10 mmHg)
- Cc1cc(C(C)(C)C)cc(C)c1CC#N [Benzeneacetonitrile, 4-(1,1-dimethylethyl)-2,6-dimethyl-]: melting point 85 °C; log S -4.702 (log10 mol/L)
- COCCCN [3-Methoxypropylamine]: logP -0.5; log VP 1.068 (log10 mmHg)
- CCCCOc1cccc(F)c1F [1-Butoxy-2,3-Difluorobenzene]: melting point -4.5 °C; logP 4; log S -4.823 (log10 mol/L); log VP -0.833 (log10 mmHg)
- CCC(CC)CO[Si](OCC(CC)CC)(OCC(CC)CC)OCC(CC)CC [Tetrakis(2-ethylbutyl) orthosilicate]: logP 6.21; log S -8.191 (log10 mol/L); log VP -3.937 (log10 mmHg)

The last 3 entries again:

| compound | name | melting point (°C) | boiling point (°C) | logP | log S (log10 mol/L) | log VP (log10 mmHg) | fraction unbound | Clint (µL/min/10^6 cells) |
|---|---|---|---|---|---|---|---|---|
| COCCCN | 3-Methoxypropylamine | – | – | -0.5 | – | 1.068 | – | – |
| CCCCOc1cccc(F)c1F | 1-Butoxy-2,3-Difluorobenzene | -4.5 | – | 4 | -4.823 | -0.833 | – | – |
| CCC(CC)CO[Si](OCC(CC)CC)(OCC(CC)CC)OCC(CC)CC | Tetrakis(2-ethylbutyl) orthosilicate | – | – | 6.21 | -8.191 | -3.937 | – | – |

Source: data files of OPERA 2.9 (Mansouri et al.), github.com/kmansouri/OPERA.